Assay: Octanol:water partition coefficient determination
Type: physicochemical
Conditions: mean ± SD

## 4-Pyridine carboetomidate [Compound 7]
  Octanol:Buffer Partition Coefficient: 753 ± 63

Source: PMC4803471 (Anesthesiology, 2016)
